Our source for the activity change, negative = inhibition values is PubChem BioAssay AID504845 (National Center for Advancing Translational Sciences (NCATS), 2011).

Protein sequences, listed by entry. Tags and fused reporters are not part of them.
UniProt P49798, whole entry: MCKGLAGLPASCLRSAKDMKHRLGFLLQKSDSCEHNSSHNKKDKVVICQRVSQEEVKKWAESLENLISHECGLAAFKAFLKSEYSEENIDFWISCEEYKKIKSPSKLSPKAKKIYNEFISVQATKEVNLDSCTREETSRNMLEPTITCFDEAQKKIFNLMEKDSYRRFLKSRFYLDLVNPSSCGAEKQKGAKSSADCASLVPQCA

Structures are written as SMILES. The entries are a selection whose mix differs from that of the whole data set. Inconclusive results are not listed. Activity calls are given as the source filed them. Calls come from the whole dose curve; as a rule, active = well fitted inhibition curve with a large enough effect; inconclusive = small, poorly fitted or top-dose-only effect; inactive = no such curve, though single readings can be large or run the other way.
% is set by controls: 0 for no effect and ±100 for the full control effect.

The test has as its target Regulator of G-protein signaling 4 (Homo sapiens) (UniProt P49798). Kind of test: Inhibitors of Regulator of G Protein Signaling (RGS) 4: qHTS. Note: nearly all actives have a fitted effect of over 75% in size. Particulars: Transcreener GDP fluorescence polarization, RGS4-accelerated GTP hydrolysis; at 114 µM (top of the series). From the text:
G-protein-coupled receptors (GPCRs) are well-established targets for drug discovery and development. Members of the "regulator of G-protein signaling" (RGS)-protein superfamily have recently emerged as critical modulators of specific GPCR signaling pathways. […] Combining specific RGS domain inhibitors with existing GPCR agonists should potentiate cellular responses and could also increase the specificity of action of existing therapeutics. Small molecule modulators of RGS domain activity should also have clinical utility in inhibiting or potentiating the actions of endogenous GPCR agonists. In particular, the diversity of RGS proteins with highly localized and dynamically regulated distributions in the human brain makes this family of proteins attractive targets for pharmacotherapy of central nervous system (CNS) disorders such as Parkinson's disease, schizophrenia, and anxiety. […]
Two microliters of 500nM (2x working concentration) is dispensed into black medium-binding solid-bottom Kalypsys plates. […] An initial fluorescent polarization read (620 nm/688 nm) is performed on the Envision before the plate is incubated for 90 minutes at 30 deg C at a relative humidity of 80%. The plate is once more centrifuged at 1000 RPM for 15 seconds and another Envision fluorescent polarization (620 nm/688 nm) read is carried out.
For `CCC(=O)N(c1ccccc1)C1(COC)CCN(CCc2cccs2)CC1`, the activity change, negative = inhibition was inactive: 8.54%. As to `CCC(=O)N(c1ccccc1)C1(COC)CCN(CCn2nnn(CC)c2=O)CC1`, the activity change, negative = inhibition was inactive: 0.0872%.
